Results as given in paper PMC8622623, “Histamine H3 Receptor Ligands—KSK-59 and KSK-73—Reduce Body Weight Gain in a Rat Model of Excessive Eating” (Pharmaceuticals, 2021).

Amino acid sequences for entries named in this document (tags omitted). A change or cut given only in a name is not applied to a line headed by its entry.
UniProt Q9Y5N1: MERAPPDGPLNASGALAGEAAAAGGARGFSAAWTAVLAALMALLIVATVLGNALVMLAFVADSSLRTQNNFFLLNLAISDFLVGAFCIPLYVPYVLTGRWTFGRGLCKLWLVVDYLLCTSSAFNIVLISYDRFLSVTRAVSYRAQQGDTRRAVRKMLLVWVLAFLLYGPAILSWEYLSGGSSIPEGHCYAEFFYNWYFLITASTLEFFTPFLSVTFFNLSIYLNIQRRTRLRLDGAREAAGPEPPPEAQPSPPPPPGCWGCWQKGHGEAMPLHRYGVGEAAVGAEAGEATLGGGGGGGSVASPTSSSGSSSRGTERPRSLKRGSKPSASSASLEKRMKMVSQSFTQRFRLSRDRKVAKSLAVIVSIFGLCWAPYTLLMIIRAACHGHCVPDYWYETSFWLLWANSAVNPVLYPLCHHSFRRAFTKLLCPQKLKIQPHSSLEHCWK

Biological target: T1, H3 histamine receptor (Homo sapiens, UniProt Q9Y5N1)
T1 construct: host or cells: recombinant frozen ready-to-use cells
Assay: Aequoscreen intrinsic activity assay (antagonist dose-response)
Format: cell-based
Method: Intrinsic activity studies were performed by two methods, Aequoscreen and Lance cAMP assays according to the manufacturer of the ready to use cells with stable expression of the H3 histamine receptor (Perkin Elmer, Waltham, MA, USA).
The Aequoscreen technology uses the recombinant cell lines with stable co-expression of apoaequorin and a GPCR as a system to detect activation of the receptor, following addition of an agonist, via the measurement of light emission. For measurement cells (frozen, ready to use) were thawed and resuspended in 10 mL of an assay buffer containing 5 μM of coelenterazine h. Then cells suspension was placed in a 10 mL Falcon tube, fixed onto a rotating wheel and incubated overnight at RT° in the dark. Cells were diluted with assay buffer to 5000 cells/20 µL. Agonistic ligands 2× (50 μL/well), diluted in assay buffer, were prepared in 1/2 area white polystyrene plates, and the 50 μL of cell suspension was dispensed on the ligands using the injector. The light emission was recorded for 20 s. Cells were incubated with antagonist for 15 min at RT°. Then 50 µL of agonist (3 × EC80 final concentration) was injected onto the mixture of cells and antagonist and the light emission was recorded for 20 s.

In the case of `NC(=NCc1ccc(Cl)cc1)SCCCc1cnc[nH]1` [Clobenpropit, reference compound], the IC50 is reported as 1.2 ± 0.3 nM.
